## scFv variants of Ab-91 (heavy chain) against a SARS-CoV-2 spike peptide

Target peptide (SARS-CoV-2 spike, HR2 region): PDVDLGDISGINAS

Each scFv is VL, a 15-residue (Gly4Ser)3 linker, VH, as in the parent Ab-91, and differs from it in the CDRs of the heavy chain only.
VL: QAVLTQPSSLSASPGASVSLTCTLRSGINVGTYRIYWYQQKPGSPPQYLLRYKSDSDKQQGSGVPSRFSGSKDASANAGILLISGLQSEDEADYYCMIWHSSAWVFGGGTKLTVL
VH: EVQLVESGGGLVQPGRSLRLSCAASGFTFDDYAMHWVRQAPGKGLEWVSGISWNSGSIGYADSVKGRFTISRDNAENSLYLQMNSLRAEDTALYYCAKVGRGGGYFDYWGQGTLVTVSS

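In library AAYL51, one, two or three CDR residues were substituted; doubles and triples were drawn at random. The scFvs were displayed on barcoded MATa yeast, the peptide on MATalpha yeast. Mating (16 h, 30 °C) was followed by selection of diploids and sequencing of their barcodes. Scores were corrected for input abundance and mapped to Kd with protein pairs of known affinity run in the same pool. There are three technical replicates.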

Variants are written as CDR1, CDR2 and CDR3 of the heavy chain (limits as in the source). Parent: GFTFDDYAMH, GISWNSGSIGYADSVK, VGRGGGYFDY.
All variants listed here change I51 of the VH, counted from its first residue.
Scale: log10 of Kd in nM, estimated from mating counts; low values are strong binders.
Averages over replicates are reported, and they cover detected replicates only.
A pair that was not seen in any replicate is written "no signal"; this usually means weak binding, but a binder can also be missed.
In this assay the parent's reference entry averaged 1.86; its copy inside this library read 0.88.
Background: pairings of library AAYL51 with three empty control strains gave a value in 21% of cases (median 4.54, 5th percentile 3.26). Values in that range, when seen in few replicates, are hard to tell from nonspecific mating. The control count says in how many pairings with the empty strains this scFv gave a signal.

For GFTFDDYAMH / GRSWNSGSIGYADSVK / VGRDGGYFDY, the assay gave 4.57 (2 of 3 replicates; controls 2 of 9).
For GFTFDDYPMH / GFSWNSGSIGYADSVK / VGRGGGPFDY, the assay gave no signal (0 of 3 replicates; controls 2 of 9).
For GFHFDDYAIH / GCSWNSGSIGYADSVK / VGRGGGYFDY, the assay gave 4.13 (1 of 3 replicates; controls 2 of 9).
For GFTYDDYAMH / GWSWNSGSIGYADSVK / VGRGGGYFDY, the assay gave no signal (0 of 3 replicates; controls 0 of 9).
For GFTFDDYAMH / GASWNSGSIGYADTVK / VWRGGGYFDY, the assay gave no signal (0 of 3 replicates; controls 0 of 9).
For GFTFDDYAMH / GNSWNSGSIGYIDSVK / VGGGGGYFDY, the assay gave no signal (0 of 3 replicates; controls 1 of 9).
For GFTFDDYAMH / GASWNKGSIGYADSVK / VGRGGWYFDY, the assay gave no signal (0 of 3 replicates; controls 2 of 9).
For GFTFDDYAMH / HFSWNSGSIGYADSNK / VGRGGGYFDY, the assay gave no signal (0 of 3 replicates; controls 0 of 9).
For GFTFDDWAMH / GCSWNSGSIGYADSVK / VERGGGYFDY, the assay gave no signal (0 of 3 replicates; controls 0 of 9).
For GFTFDDYAMH / GMSWNSGSIGYADSVK / VGRGGGYFDY, the assay gave 2.31 (3 of 3 replicates; controls 2 of 9).
For GFTQDRYAMH / GGSWNSGSIGYADSVK / VGRGGGYFDY, the assay gave no signal (0 of 3 replicates; controls 0 of 9).
For GFTFDRYAMH / GNSWNSGSIGYADSVK / VGRGGGYFWY, the assay gave 4.48 (1 of 3 replicates; controls 1 of 9).
For GFTFDDYAMH / GVSWNSGSIGYADSVK / VGRGRGYFDY, the assay gave 4.25 (1 of 3 replicates; controls 0 of 9).
For GFTFDDAAMH / GFSWNSVSIGYADSVK / VGRGGGYFDY, the assay gave no signal (0 of 3 replicates; controls 8 of 9).
For GFTFDDYAMH / GNSWWSGRIGYADSVK / VGRGGGYFDY, the assay gave 5.42 (2 of 3 replicates; controls 1 of 9).
For GFTFDDRAMH / GCSWNSGSIGYADSVK / NGRGGGYFDY, the assay gave no signal (0 of 3 replicates; controls 0 of 9).
For GFTFDDYAMH / GCSWNSGSIGYADSVK / VGRGGGYDVY, the assay gave 6.15 (1 of 3 replicates; controls 3 of 9).
For GFTFDDYAMH / GTSWNSGSIGYADSTK / VGRGPGYFDY, the assay gave 4.61 (3 of 3 replicates; controls 2 of 9).
For GFTFDDYAMH / GWSWNSGSIGYADSVD / VGRGGGFFDY, the assay gave 4.76 (1 of 3 replicates; controls 0 of 9).
For GFTFDDYMMH / GVSWNSGSIGYADSVK / VGRGGGYFDY, the assay gave 4.67 (1 of 3 replicates; controls 1 of 9).
For GFTFDDYAMH / GMSWNSGSIGQADSVE / VGRGGGYFDY, the assay gave 4.52 (1 of 3 replicates; controls 1 of 9).
For GFTFDDYAMH / GASWNSGSIGYADSVK / VGRGPGYYDY, the assay gave no signal (0 of 3 replicates; controls 0 of 9).
For GFTFDDYAMH / GTSWNSGSIGYADSFK / VGRGGGIFDY, the assay gave 4.77 (3 of 3 replicates; controls 7 of 9).
For GFTFDDYAMH / GNSWNSGSHGYADSVK / VGRGGGYFDY, the assay gave 4.68 (2 of 3 replicates; controls 3 of 9).
For GFTFDDYMMH / GHSWNSGSIGYADNVK / VGRGGGYFDY, the assay gave 3.46 (1 of 3 replicates; controls 1 of 9).
For GFTFDDYAMH / GASWTSGSIGYAMSVK / VGRGGGYFDY, the assay gave 3.74 (1 of 3 replicates; controls 2 of 9).
For GFTFDDYAMH / GDSWNSGFIGYADSVK / VGRGGGYFIY, the assay gave no signal (0 of 3 replicates; controls 1 of 9).
For GFTFDDYAMH / GWSWNSGSIGYADSVK / VGRGGTRFDY, the assay gave 4.98 (1 of 3 replicates; controls 0 of 9).
For GFTFDDYAMH / GWNWNSGSIGYADSVK / VGRGGGYFDY, the assay gave 3.54 (1 of 3 replicates; controls 0 of 9).
For GFTFDDYAMH / GHSWNSGSIGYADVVK / VGGGGGYFDY, the assay gave 3.68 (2 of 3 replicates; controls 0 of 9).
For GFTFDDYAMH / GMNWNSGSIPYADSVK / VGRGGGYFDY, the assay gave no signal (0 of 3 replicates; controls 4 of 9).
For GFTFDDYAMH / GDSWNSESIGYIDSVK / VGRGGGYFDY, the assay gave 4.41 (1 of 3 replicates; controls 3 of 9).
For GFTFDDYAMH / GSSWNSGSIGYADSVK / VGGGGGYFDY, the assay gave no signal (0 of 3 replicates; controls 0 of 9).
For GFTFDDYAHH / GASWNSGSIGCADSVK / VGRGGGYFDY, the assay gave 4.65 (1 of 3 replicates; controls 0 of 9).
For GFTFDDYAMH / GFSLNSGSYGYADSVK / VGRGGGYFDY, the assay gave 3.51 (2 of 3 replicates; controls 0 of 9).
For GFTFDDYAMH / TNSWNSGSIGYGDSVK / VGRGGGYFDY, the assay gave no signal (0 of 3 replicates; controls 1 of 9).
For GFTFDDYAMH / GDSWNSGSIAYADSVK / VGRGGGYFDY, the assay gave 5.57 (1 of 3 replicates; controls 4 of 9).
For GFTVDDYAMH / GLSWNSGSIGYADSVK / VGRGQGYFDY, the assay gave no signal (0 of 3 replicates; controls 0 of 9).
For GFTFDDYSMH / GHSWNSGSIGYADSVD / VGRGGGYFDY, the assay gave 4.35 (1 of 3 replicates; controls 3 of 9).
For GFTFDDYAMH / GGSMNSGSIGYADSVC / VGRGGGYFDY, the assay gave 4.75 (1 of 3 replicates; controls 4 of 9).
For GFFFDDYAMH / GQSWNSGSIGYADSVK / VGRGGGYFDK, the assay gave 4.66 (2 of 3 replicates; controls 2 of 9).
For YFTFDDYAMH / GRSWNSGSIGYADSVK / VGRGGYYFDY, the assay gave no signal (0 of 3 replicates; controls 0 of 9).
For GFTFDRYAMH / GTSCNSGSIGYADSVK / VGRGGGYFDY, the assay gave 4.67 (3 of 3 replicates; controls 3 of 9).
For GFTFDDYAMH / GHSWNQGSIGYADSVK / VGRGGGYFDY, the assay gave no signal (0 of 3 replicates; controls 2 of 9).
For GFTFDDWAMH / KLSWNSGSIGYADSVK / VGRGGGYFDY, the assay gave 5.41 (2 of 3 replicates; controls 4 of 9).
For GKTFDDYAMH / GNDWNSGSIGYADSVK / VGRGGGYFDY, the assay gave no signal (0 of 3 replicates; controls 3 of 9).
For GFTFDDYAMH / GRSWMSGSIGYADSVK / VGRGGGYFDY, the assay gave 5.31 (2 of 3 replicates; controls 4 of 9).
For GFTFDDYAMH / GSSWNSGSIGYAPSCK / VGRGGGYFDY, the assay gave no signal (0 of 3 replicates; controls 1 of 9).
For GFTFDDYAMH / GYTWNSGSIGTADSVK / VGRGGGYFDY, the assay gave no signal (0 of 3 replicates; controls 0 of 9).
For GFTFDDYAMH / GFSWNSGSIGYDDSVK / TGRGGGYFDY, the assay gave 4.90 (1 of 3 replicates; controls 1 of 9).
For GFTFDDYFMH / GNSWNSASIGYADSVK / VGRGGGYFDY, the assay gave no signal (0 of 3 replicates; controls 2 of 9).
For GFTFDDYAMH / GKSWNSGSIGYADSEA / VGRGGGYFDY, the assay gave no signal (0 of 3 replicates; controls 3 of 9).

The 4 strongest on average among those seen in every replicate, once more:

| CDR-H1 | CDR-H2 | CDR-H3 | mean, log10 nM | seen in | control signals |
|---|---|---|---|---|---|
| GFTFDDYAMH | GMSWNSGSIGYADSVK | VGRGGGYFDY | 2.31 | 3/3 | 2/9 |
| GFTFDDYAMH | GTSWNSGSIGYADSTK | VGRGPGYFDY | 4.61 | 3/3 | 2/9 |
| GFTFDRYAMH | GTSCNSGSIGYADSVK | VGRGGGYFDY | 4.67 | 3/3 | 3/9 |
| GFTFDDYAMH | GTSWNSGSIGYADSFK | VGRGGGIFDY | 4.77 | 3/3 | 7/9 |

Values reported by Engelhart et al. 2022, doi:10.1038/s41597-022-01779-4 (FLAb copy).